According to PubChem BioAssay AID592 (National Center for Advancing Translational Sciences (NCATS), 2007):
Some of the results follow. Some of these compounds have results that are not shown, active ones among them. Calls of active or inactive are those of the source. The rule behind the calls is not given here.

Experiment: qHTS Assay for Spectroscopic Profiling in A647 Spectral Region
Conditions: Compound fluorescence, A647 channel (570/671 nm), Tris buffer; hits give high values
Description: NIH Molecular Libraries Screening Centers Network [MLSCN] NIH Chemical Genomics Center [NCGC] […] Occasionally, the artifactual effect may originate from the compounds own spectral or other biophysical properties which generally tend to track its assay concentration. Pre-screening/profiling the library with respect to the compounds spectral properties should help one exclude false positives early on. While the most informative fluorescent profiling data set is obtained by performing a full excitation and emission scan of each well by using a monochromator-based plate reader, such an approach is practical only on a very limited scale as scanning each well requires long time. An alternative approach, applied here, is to perform plate reader scans using selected excitation and emission wavelength pairs to generate a multidimensional relational database that correlates compound concentration and the respective relative fluorescence intensity at a given wavelength set. A standard curve of Alexa 647 (A647) present on each plate as six-point concentration series, was used to compute a normalized fluorescence response, termed dye-equivalent concentration, for each compound at each concentration.
NCGC Assay Protocol Summary: Buffer: 100 mM Tris buffer, pH 8.0 Dye standard plate: The wells in columns 1 through 4 of a Kalypsys polypropylene 1536-well compound plate were filled with standard solutions of fluorophore corresponding to the spectral region of interest. Solutions of A647 were placed in the following wells: AC1, AD1: 3 mM, AC2, AD2: 300 uM, AC3, AD3: 30 uM, AC4, AD4: zero (DMSO), AE1, AF1: 3 uM, AE2, AF2: 900 nM, AE3, AF3: 300 nM, AE4, AF4: zero (DMSO). Assay Steps: Six uL of buffer were dispensed to 1536-well Greiner black plates. Compounds and dye standards (23 nL) were transferred via Kalypsys PinTool. The plates were incubated for 15 min at room temperature, and then read on ViewLux (Perkin-Elmer) High-throughput CCD imager using 570 nm and 671 nm excitation and emission filter set. Keywords: NIH Roadmap, MLSCN, MLI, MLSMR, qHTS, NCGC, A647, A-647, Fluorescent Profiling.
With `O=C(OC1CN2CCC1CC2)C(CO)(c1ccccc1)c1ccccc1` (stereo not given) the max dye-equivalent concentration was inactive: 68 nM.
For `CN1CC[C@H](OC(=O)[C@](O)(c2ccccc2)C2CCCC2)C1`, the max dye-equivalent concentration was inactive: 37 nM.
With `CN1CCC[C@H](OC(=O)[C@](O)(c2ccccc2)C2CCCC2)C1` the max dye-equivalent concentration was inactive: 36 nM.
In the case of `C=C(C)C#C[C@@](O)(C(=O)OC1CCN(C)CC1)c1ccccc1`, the max dye-equivalent concentration is reported as inactive: 59 nM.
In the case of `CN(C)c1cccc(C(=O)NCC2(N(C)C)CCCCC2)c1`, the max dye-equivalent concentration is reported as inactive: 2.5 nM.
